Data on one compound can be found in PubChem BioAssay AID1046 (PCMD, 2008).

Only a part is listed here, and it is no random draw. Active and inactive are the calls of the source.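 How the source made its calls: active means inhibition at or above 40%; inactive means inhibition below 40%.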

The target of the assay is Prothrombin (Homo sapiens) (UniProt P00734). In words: blockers of thrombin peptide substrate cleavage – biochemical, 1536-well, fluorogenic AMC substrate, counter-screen for coagulation protease inhibitor project, primary screen (AID 1046).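 Further: 0% = enzyme with no compound and 100% = wells without enzyme.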 The following applies: alpha-thrombin, Boc-VPR-AMC fluorogenic substrate cleavage; at 5 µM; stronger effect = higher value. For orientation: Counterscreens check selectivity or assay interference.
What is called inhibition is the drop in the measured response relative to a control, in per cent. As for `O=[N+]([O-])c1ccc(OP2(=O)COCCO2)cc1` (stereo unspecified), the inhibition was inactive: -1.23%.
